ChEMBL document CHEMBL3585325, “Discovery of (1R,2S)-2-{[(2,4-Dimethylpyrimidin-5-yl)oxy]methyl}-2-(3-fluorophenyl)-N-(5-fluoropyridin-2-yl)cyclopropanecarboxamide (E2006): A Potent and Efficacious Oral Orexin Receptor Antagonist” (J Med Chem, 2015)

By UniProt entry, the sequences of proteins in these tests, tags left out.
UniProt O43614, whole entry: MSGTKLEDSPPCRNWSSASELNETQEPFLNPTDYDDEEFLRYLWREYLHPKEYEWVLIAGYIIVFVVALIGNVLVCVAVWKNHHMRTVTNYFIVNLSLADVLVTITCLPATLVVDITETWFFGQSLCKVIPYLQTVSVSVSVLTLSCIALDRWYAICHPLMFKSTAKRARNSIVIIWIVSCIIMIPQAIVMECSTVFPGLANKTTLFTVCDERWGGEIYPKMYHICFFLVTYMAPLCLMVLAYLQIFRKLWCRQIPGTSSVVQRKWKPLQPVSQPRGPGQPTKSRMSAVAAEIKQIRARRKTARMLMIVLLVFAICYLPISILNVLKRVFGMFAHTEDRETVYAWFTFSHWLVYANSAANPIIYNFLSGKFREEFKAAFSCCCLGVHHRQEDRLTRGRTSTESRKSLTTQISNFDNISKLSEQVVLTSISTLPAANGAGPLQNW

Legend:
Orexin receptor type 2 [1] = biological target: T1, Orexin receptor type 2 (Homo sapiens, UniProt O43614); assay: Binding affinity to human OX2R by radioligand displacement binding assay
Summary of the method: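 Ki values come from single experiments run in triplicate.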

[2] = Activity at P-gp (unknown origin) assessed as corrected flux ratio; type: ADME; conditions: human
Summary of the method: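 Reported as corrected flux ratio, i.e. the MDR1 flux ratio divided by the PK1 flux ratio.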

Orexin receptor type 2 [3] = biological target: T1, Orexin receptor type 2

Q: For `Cc1ncc(OC[C@@]2(c3cccc(F)c3)C[C@H]2C(=O)Nc2ccc(F)cn2)c(C)n1` [LEMBOREXANT], which Ki (Orexin receptor type 2 [1]) is on record?
A: 3 nM

Q: What about the Ratio [2] of the same compound?
A: 1.6

Q: What about the Ki (Orexin receptor type 2 [3]) of the same compound?
A: 0.44 nM
